Assay: Solubility test: 20 mg sample in 10 g solvent, evaluated visually
Assay type: physicochemical
Settings: 20 mg in 10 g solvent (0.2 mass %), room temperature / 25° C., visual
Protocol: For evaluating the applicability thereof to a wet process, the compound to be analyzed was tested in a dissolution test in various solvents. As a comparative case, anthracene was tested for the dissolution test.
Concretely, 20 mg of the sample was weighed, and the solubility thereof (0.2 mass %) in 10 g of a solvent at room temperature was visually evaluated.
In Table 1, A means soluble, and B means insoluble. The standard of “soluble” was set as the case where the compound dissolved in an amount of 0.2% by mass or more at a solvent temperature of 25° C.

## Perfluorohexylated Anthracene [Example 1-1]
cyclohexane
  Solubility Test Cyclohexane: A (A means soluble)
hexane
  Solubility Test Hexane: A (A means soluble)
